The chains behind the UniProt entries cited, without tags or fusion partners. Where a name states a change or a piece, a line headed by the entry shows the natural chain unless it says otherwise.
UniProt P41146: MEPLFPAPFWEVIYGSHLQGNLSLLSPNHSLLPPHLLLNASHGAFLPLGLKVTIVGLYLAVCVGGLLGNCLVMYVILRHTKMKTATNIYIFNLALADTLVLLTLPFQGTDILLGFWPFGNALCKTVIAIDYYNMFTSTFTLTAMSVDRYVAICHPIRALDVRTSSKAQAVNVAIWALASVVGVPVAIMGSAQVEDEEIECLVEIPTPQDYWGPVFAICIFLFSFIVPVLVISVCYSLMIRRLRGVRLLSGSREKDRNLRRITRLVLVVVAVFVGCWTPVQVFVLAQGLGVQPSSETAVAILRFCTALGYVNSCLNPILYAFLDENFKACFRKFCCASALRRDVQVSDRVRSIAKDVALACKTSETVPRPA
UniProt P41145: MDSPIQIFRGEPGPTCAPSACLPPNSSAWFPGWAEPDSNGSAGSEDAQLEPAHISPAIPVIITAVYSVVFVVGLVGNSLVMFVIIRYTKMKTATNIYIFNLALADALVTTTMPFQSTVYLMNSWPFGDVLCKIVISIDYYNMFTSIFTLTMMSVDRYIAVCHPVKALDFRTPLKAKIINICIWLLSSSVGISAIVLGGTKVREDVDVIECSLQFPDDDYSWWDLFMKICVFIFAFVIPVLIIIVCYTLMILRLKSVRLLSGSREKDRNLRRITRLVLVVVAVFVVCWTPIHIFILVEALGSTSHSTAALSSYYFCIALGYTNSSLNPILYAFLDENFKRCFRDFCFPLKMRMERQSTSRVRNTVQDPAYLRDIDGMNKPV
UniProt P41143, whole entry, looked up: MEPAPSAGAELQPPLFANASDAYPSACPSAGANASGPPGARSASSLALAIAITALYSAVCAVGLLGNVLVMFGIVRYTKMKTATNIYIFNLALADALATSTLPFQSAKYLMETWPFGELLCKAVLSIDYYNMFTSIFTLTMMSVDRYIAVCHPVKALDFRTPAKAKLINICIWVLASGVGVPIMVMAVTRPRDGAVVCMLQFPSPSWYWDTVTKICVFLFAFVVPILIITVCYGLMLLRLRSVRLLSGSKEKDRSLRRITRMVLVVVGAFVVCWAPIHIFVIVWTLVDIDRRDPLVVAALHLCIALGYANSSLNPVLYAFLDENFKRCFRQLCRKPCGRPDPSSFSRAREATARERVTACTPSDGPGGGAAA
UniProt P35372, whole entry, looked up: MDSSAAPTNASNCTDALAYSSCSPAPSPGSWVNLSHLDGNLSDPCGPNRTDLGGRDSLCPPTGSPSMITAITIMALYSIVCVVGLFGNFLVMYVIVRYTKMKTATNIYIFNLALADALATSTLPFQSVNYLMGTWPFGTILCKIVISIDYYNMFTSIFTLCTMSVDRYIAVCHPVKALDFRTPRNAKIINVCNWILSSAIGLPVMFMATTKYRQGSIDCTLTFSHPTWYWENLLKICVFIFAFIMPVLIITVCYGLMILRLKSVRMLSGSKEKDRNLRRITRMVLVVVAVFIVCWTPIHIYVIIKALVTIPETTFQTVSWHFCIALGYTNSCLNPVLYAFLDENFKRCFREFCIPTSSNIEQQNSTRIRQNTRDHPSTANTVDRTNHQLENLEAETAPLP

According to ChEMBL document CHEMBL1138891, “3-(4-Piperidinyl)indoles and 3-(4-piperidinyl)pyrrolo-[2,3-b]pyridines as ligands for the ORL-1 receptor” (Bioorg Med Chem Lett, 2006):

What was measured:
[1] = target: T1, Nociceptin receptor (Homo sapiens, UniProt P41146); assay: Displacement of [125I]Tyr14-nociceptin from ORL1 receptor expressed in HEK293 cells
[2] = target: Kappa-type opioid receptor (Homo sapiens, UniProt P41145); assay: Displacement of [3H]U-69593 from kappa opioid receptor expressed in HEK293 cells
[3] = target: Delta-type opioid receptor (Homo sapiens, UniProt P41143); assay: Displacement of [3H]DDPDE from delta opioid receptor expressed in HEK293 cells
[4] = target: Mu-type opioid receptor (Homo sapiens, UniProt P35372); assay: Displacement of [3H]DAMGO from mu opioid receptor expressed in HEK293 cells
[5] = target: T1, Nociceptin receptor; assay: Agonist activity at ORL1 receptor expressed in HEK293 cells by calciun flux assay

For `c1cc2c3c(cccc3c1)C(N1CCC(c3c[nH]c4ncccc34)CC1)C2` (configuration not stated), the Ki [1] was 4 nM, the Ki [2] was 2780 nM and the Ki [3] was over 5 µM. The Ki [4] was 390 nM.
In the case of `Cc1[nH]c2ccc(Cl)cc2c1C1CCN(C2Cc3cccc4cccc2c34)CC1` (configuration not stated), the Ki [1] is reported as 10 nM, the Ki [2] is reported as 680 nM and the Ki [3] is reported as 2.75 µM. It also gave a Ki [4] of 260 nM.
In the case of `c1ccc2c(CN3CCC(c4c[nH]c5ncccc45)CC3)cccc2c1`, the Ki [1] is reported as 820 nM, the Ki [2] is reported as 710 nM and the Ki [3] is reported as over 5 µM. It also gave a Ki [4] of 340 nM.
`Clc1cccc2c(C3CCN(C4Cc5cccc6cccc4c56)CC3)c[nH]c12` (configuration not stated) was tested, and the Ki [1] was 57 nM, the EC50 [5] was over 80 µM and the Ki [2] was 2600 nM. For the same compound, the Ki [3] was over 5 µM and the Ki [4] was 260 nM.
Work on `OCCn1cc(C2CCN(C3Cc4cccc5cccc3c45)CC2)c2cccnc21` (configuration not stated) yielded a Ki [1] of 94 nM, a Ki [2] of over 5000 nM and a Ki [3] of over 5 µM. It also gave a Ki [4] of 530 nM.
For `Clc1ccc2[nH]cc(C3=CCN(Cc4ccccc4)CC3)c2c1`, the Ki [1] was over 5000 nM, the Ki [2] was 1010 nM and the Ki [3] was over 5 µM. The Ki [4] was 500 nM.
Compound `Cc1[nH]c2ccc(Cl)cc2c1C1CCN(Cc2cccc3ccccc23)CC1` has a Ki [1] of over 5000 nM, a Ki [2] of 750 nM and a Ki [3] of over 5 µM. It also gave a Ki [4] of 880 nM.
Compound `CC(C)(C)C1CCC(C(=O)N2CCC(c3c[nH]c4ncccc34)CC2)CC1` (configuration not stated) has a Ki [1] of over 5000 nM, a Ki [2] of over 5000 nM and a Ki [3] of over 5 µM. The Ki [4] was over 5000 nM.
`c1cnc2[nH]cc(C3CCN(CC4CCCCCCC4)CC3)c2c1` showed a Ki [1] of 550 nM, a Ki [2] of 3890 nM and a Ki [3] of over 5 µM. The Ki [4] was 2000 nM.
For `Fc1ccc2[nH]cc(C3CCN(Cc4cccc5ccccc45)CC3)c2c1`, the Ki [1] was 800 nM, the Ki [2] was 820 nM and the Ki [3] was over 5 µM. For the same compound, the Ki [4] was 500 nM.
In the case of `c1ccc(Oc2ccc(CN3CCC(c4c[nH]c5ncccc45)CC3)cc2)cc1`, the Ki [1] is reported as over 5000 nM, the Ki [2] is reported as over 5000 nM and the Ki [3] is reported as over 5 µM. The Ki [4] was 330 nM.
`Fc1ccc2c(C3CCN(C4Cc5cccc6cccc4c56)CC3)c[nH]c2c1` (configuration not stated) gave a Ki [1] of 52 nM, a Ki [2] of over 5000 nM and a Ki [3] of over 5 µM. The Ki [4] was 900 nM.
`Cc1[nH]c2ccc(Cl)cc2c1C1CCN(CC2CCCCCCC2)CC1` gave a Ki [1] of 710 nM, a Ki [2] of 330 nM and a Ki [3] of 4.18 µM. For the same compound, the Ki [4] was 1360 nM.
Work on `CC(=O)OC1CN(C2Cc3cccc4cccc2c34)CCC1c1cn(C)c2ncccc12` (configuration not stated) yielded a Ki [1] of over 5000 nM, a Ki [2] of over 5000 nM and a Ki [3] of over 5 µM. For the same compound, the Ki [4] was over 5000 nM.
`CN(C)C[C@@H](O)Cn1cc(C2CCN(CC3CCCCCCC3)CC2)c2cc(F)ccc21` gave a Ki [1] of 970 nM, a Ki [2] of 1900 nM and a Ki [3] of over 5 µM. The Ki [4] was 2700 nM.
`Fc1ccc2[nH]cc(C3CCN(CC4CCCCCCC4)CC3)c2c1` gave a Ki [1] of 290 nM, a Ki [2] of 180 nM and a Ki [3] of over 5 µM. For the same compound, the Ki [4] was 1080 nM.
`Fc1ccc2[nH]cc(C3CCN(C4Cc5cccc6cccc4c56)CC3)c2c1` (configuration not stated) gave a Ki [2] of 1890 nM, a Ki [3] of over 5 µM and a Ki [4] of 500 nM.
In the case of `Clc1cccc2c(C3CCN(CC4CCCCCCC4)CC3)c[nH]c12`, the Ki [1] is reported as 660 nM, the Ki [2] is reported as 1170 nM and the Ki [3] is reported as over 5 µM. It also gave a Ki [4] of 430 nM.
Work on `Clc1ccc2[nH]cc(C3CCN(Cc4ccccc4)CC3)c2c1` yielded a Ki [1] of 1140 nM, a Ki [2] of 330 nM and a Ki [3] of over 5 µM. The Ki [4] was 230 nM.
Compound `N#Cc1ccc2c(c1)c(C1=CCN(C3Cc4cccc5cccc3c45)CC1)cn2C[C@H](O)CN` (some centres not stated) has a Ki [1] of 1650 nM, a Ki [2] of over 5000 nM and a Ki [3] of over 5 µM. The Ki [4] was 4140 nM.
For `CCCCCCN1CCC(c2c[nH]c3ncccc23)CC1`, the Ki [1] was over 5000 nM, the Ki [2] was over 5000 nM and the Ki [3] was over 5 µM. It also gave a Ki [4] of over 5000 nM.
Work on `Cn1cc(C2CCN(C3Cc4cccc5cccc3c45)CC2O)c2cccnc21` (configuration not stated) yielded a Ki [1] of 2 nM, a Ki [2] of 4300 nM and a Ki [3] of over 5 µM. It also gave a Ki [4] of 170 nM.
For `c1cnc2[nH]cc(C3CCN(CC4CCCCC4)CC3)c2c1`, the Ki [1] was 3500 nM, the Ki [2] was over 5000 nM and the Ki [3] was over 5 µM. The Ki [4] was over 5000 nM.
`CN(C)C[C@@H](O)Cn1cc(C2CCN(C3Cc4cccc5cccc3c45)CC2)c2ccc(F)cc21` (some centres not stated) was tested, and the Ki [1] was 62 nM, the Ki [2] was over 5000 nM and the Ki [3] was over 5 µM. For the same compound, the Ki [4] was 760 nM.
In the case of `Clc1ccc2c(C3CCN(C4Cc5cccc6cccc4c56)CC3)cn(Cc3ccccc3)c2c1` (configuration not stated), the Ki [1] is reported as over 5000 nM, the Ki [2] is reported as over 5000 nM and the Ki [3] is reported as over 5 µM. For the same compound, the Ki [4] was over 5000 nM.
`Cn1cc(C2CCN(C3Cc4cccc5cccc3c45)CC2)c2cccnc21` (configuration not stated) gave a Ki [1] of 81 nM, a Ki [2] of over 5000 nM and a Ki [3] of over 5 µM. The Ki [4] was 900 nM.
`Fc1ccc2c(C3=CCN(C4Cc5cccc6cccc4c56)CC3)c[nH]c2c1` (configuration not stated) showed a Ki [1] of 160 nM, a Ki [2] of over 5000 nM and a Ki [3] of over 5 µM. The Ki [4] was over 5000 nM.
With `N#Cc1ccc2[nH]cc(C3=CCN(C4Cc5cccc6cccc4c56)CC3)c2c1` (configuration not stated) the Ki [1] was over 5000 nM, the Ki [2] was over 5000 nM and the Ki [3] was over 5 µM. It also gave a Ki [4] of over 5000 nM.
